Test results: ChEMBL document CHEMBL1671831, “TSPO 18 kDa (PBR) Targeted Photosensitizers for Cancer Imaging (PET) and PDT” (ACS Med Chem Lett, 2011)

Sequences of proteins named here, by UniProt entry; tags and fusion partners are left off.
UniProt P30536, whole entry: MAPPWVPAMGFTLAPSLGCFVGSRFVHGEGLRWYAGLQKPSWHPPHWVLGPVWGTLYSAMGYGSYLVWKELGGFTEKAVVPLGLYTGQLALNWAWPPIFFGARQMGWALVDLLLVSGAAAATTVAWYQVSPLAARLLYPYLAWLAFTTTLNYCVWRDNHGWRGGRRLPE

Biological target: Translocator protein (Homo sapiens, UniProt P30536)
Assay: Displacement of [3H]-PK11195 from PBR after 1 hr by scintillation counting

IC50: 490 nM
Compound: CCC(C)N(C)C(=O)c1cc2ccccc2c(-c2ccccc2Cl)n1 (stereo unspecified) [PK-11195]
